One experiment concerns the target α3β2 nAChR subtype (Rattus norvegicus, UniProt P04757+P12390). The following applies: read-out: Ki α3β2.
In another experiment the target is α2β2 nAChR subtype (Rattus norvegicus, UniProt P12389+P12390). The following applies: read-out: Ki α2β2.
In the next experiment the target is α2β4 nAChR subtype (Rattus norvegicus, UniProt P12389+P12392). The following applies: read-out: Ki α2β4.
The next experiment addresses α4β4 nAChR subtype (Rattus norvegicus, UniProt P09483+P12392). The following applies: read-out: Ki α4β4.
In a further experiment the target is α4β2 nAChR subtype (Rattus norvegicus, UniProt P09483+P12390).
Another experiment deals with α3β4 nAChR subtype (Rattus norvegicus, UniProt P04757+P12392). The following applies: read-out: Ki α3β4; Table 1; mean of 3 (1, 2: 3 to 6) independent measurements.
Experiment [1] deals with receptors in rat forebrain (mainly α4β2) (Rattus norvegicus, UniProt P09483+P12390). The following applies: read-out: Ki Rat forebrain; Table 1; mean of 3 (1, 2: 3 to 6) independent measurements.
Experiment [2] deals with receptors in rat forebrain (mainly α4β2). The following applies: Table 3; ratio of the corresponding Ki values.
The mark [3] stands for this setting: Table 1, mean of 3 (1, 2: 3 to 6) independent measurements.

The chains behind the UniProt entries cited, without tags or fusion partners. Residues count along the entry.
UniProt P04757, 26-499 limits assumed: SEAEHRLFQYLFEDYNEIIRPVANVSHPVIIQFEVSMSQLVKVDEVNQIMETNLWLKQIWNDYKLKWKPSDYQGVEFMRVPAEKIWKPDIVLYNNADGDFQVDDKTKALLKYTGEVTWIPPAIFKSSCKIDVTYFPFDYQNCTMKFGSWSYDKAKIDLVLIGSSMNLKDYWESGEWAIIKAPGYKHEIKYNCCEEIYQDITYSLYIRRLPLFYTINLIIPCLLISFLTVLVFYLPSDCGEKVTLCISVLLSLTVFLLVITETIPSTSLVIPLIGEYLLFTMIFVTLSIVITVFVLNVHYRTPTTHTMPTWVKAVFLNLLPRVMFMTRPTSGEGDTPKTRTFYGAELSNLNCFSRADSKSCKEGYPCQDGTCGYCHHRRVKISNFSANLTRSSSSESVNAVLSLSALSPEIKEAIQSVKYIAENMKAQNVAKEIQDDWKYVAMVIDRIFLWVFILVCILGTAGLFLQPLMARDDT
UniProt P12390, 25-500 limits assumed: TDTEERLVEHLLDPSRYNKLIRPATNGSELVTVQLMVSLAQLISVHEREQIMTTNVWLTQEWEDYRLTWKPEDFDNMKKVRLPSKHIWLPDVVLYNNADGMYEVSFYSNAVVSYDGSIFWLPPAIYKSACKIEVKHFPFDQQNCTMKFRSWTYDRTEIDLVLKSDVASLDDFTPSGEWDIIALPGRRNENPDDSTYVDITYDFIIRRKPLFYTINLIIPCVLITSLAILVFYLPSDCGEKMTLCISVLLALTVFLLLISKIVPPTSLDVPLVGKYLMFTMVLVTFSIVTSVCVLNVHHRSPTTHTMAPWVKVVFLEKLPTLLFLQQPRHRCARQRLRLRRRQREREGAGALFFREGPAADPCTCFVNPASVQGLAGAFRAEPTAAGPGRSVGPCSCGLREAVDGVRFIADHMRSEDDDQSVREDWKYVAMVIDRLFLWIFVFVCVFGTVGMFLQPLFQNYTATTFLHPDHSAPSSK
UniProt P12389, 28-511 limits assumed: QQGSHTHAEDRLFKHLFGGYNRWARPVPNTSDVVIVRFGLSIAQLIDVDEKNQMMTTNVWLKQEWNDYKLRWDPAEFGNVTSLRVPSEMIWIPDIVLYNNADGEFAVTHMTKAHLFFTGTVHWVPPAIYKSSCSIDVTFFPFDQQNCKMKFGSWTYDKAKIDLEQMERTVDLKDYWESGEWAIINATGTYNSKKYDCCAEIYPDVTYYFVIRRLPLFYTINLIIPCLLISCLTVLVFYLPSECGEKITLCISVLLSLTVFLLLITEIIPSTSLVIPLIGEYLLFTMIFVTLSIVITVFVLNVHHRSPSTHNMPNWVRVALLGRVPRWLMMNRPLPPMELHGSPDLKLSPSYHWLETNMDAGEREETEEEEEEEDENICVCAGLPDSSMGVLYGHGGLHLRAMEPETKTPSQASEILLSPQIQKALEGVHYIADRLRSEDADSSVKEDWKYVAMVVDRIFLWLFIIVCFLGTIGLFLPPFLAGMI
UniProt P12392, 21-495 limits assumed: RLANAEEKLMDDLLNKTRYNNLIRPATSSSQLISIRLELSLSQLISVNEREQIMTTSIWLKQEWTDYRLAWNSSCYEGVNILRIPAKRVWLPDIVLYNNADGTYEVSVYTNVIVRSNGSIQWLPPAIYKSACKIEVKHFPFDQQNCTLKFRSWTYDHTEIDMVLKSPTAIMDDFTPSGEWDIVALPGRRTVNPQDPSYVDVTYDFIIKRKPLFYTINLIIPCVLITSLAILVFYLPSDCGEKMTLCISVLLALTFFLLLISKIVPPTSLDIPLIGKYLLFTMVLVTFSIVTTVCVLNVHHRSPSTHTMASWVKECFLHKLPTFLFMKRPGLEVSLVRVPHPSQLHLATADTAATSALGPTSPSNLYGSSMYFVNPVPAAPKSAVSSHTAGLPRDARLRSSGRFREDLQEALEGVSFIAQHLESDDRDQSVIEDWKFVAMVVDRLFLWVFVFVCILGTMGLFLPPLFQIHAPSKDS
UniProt P09483, 31-630 limits assumed: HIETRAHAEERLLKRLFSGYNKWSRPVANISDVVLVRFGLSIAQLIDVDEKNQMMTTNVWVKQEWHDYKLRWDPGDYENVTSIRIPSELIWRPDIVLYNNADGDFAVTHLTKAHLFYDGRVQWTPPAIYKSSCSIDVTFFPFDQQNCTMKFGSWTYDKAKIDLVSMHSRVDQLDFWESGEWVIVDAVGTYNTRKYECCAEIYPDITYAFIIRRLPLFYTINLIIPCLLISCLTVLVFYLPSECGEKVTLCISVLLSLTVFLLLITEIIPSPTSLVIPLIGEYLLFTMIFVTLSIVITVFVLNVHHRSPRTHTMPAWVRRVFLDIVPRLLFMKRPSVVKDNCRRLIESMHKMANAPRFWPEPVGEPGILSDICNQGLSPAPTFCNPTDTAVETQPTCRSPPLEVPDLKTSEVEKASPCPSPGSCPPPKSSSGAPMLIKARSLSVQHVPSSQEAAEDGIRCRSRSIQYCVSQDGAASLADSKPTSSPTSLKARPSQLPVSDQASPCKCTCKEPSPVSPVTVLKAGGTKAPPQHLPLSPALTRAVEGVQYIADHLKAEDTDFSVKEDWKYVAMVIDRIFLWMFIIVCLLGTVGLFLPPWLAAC

Where two headings read alike, the source gives them in different places.

For `OC1CC2NC1CC2c1ccc(Cl)nc1` (stereo not drawn) [Ligand 7, 2-exo-(2-Chloro-5-pyridyl)-5-endo-hydroxyl-7-azabicyclo[2.2.1]heptane], the inhibitory constant (Ki) on α3β2 nAChR subtype came out at 19.3 nM; on α2β2 nAChR subtype, 16.9 nM; at α2β4 nAChR subtype, 67.5 nM; on α4β4 nAChR subtype, 72.8 nM.
Regarding `OC1CC2CC(c3ccc(Cl)nc3)C1N2` (single isomer, unassigned), the inhibition constant (Ki) on α3β2 nAChR subtype came to 8.9 nM.
Regarding `CN1CCC[C@H]1COc1cncc(C#Cc2ccccc2)c1`, the Ki came out at 4.96 nM on α3β2 nAChR subtype (setting [3]); 0.936 nM on α4β2 nAChR subtype (read-out: Ki α4β2, Table 1, mean of 3 (1, 2: 3 to 6) independent measurements); 4.52 nM on α2β2 nAChR subtype (setting [3]); 2460 nM at α3β4 nAChR subtype; 437 nM at α2β4 nAChR subtype (setting [3]); 369 nM on α4β4 nAChR subtype (setting [3]). The Ki in experiment [1] came out at 6.4 nM.
For the compound `OCCCCC#Cc1cncc(C2CC3CCC2N3)c1` (stereo not drawn) [Ligand 31, 2-exo-(5-(6-Hydroxy-1-hexynyl)-3-pyridyl)-7-azabicyclo[2.2.1]heptane], at α4β2 nAChR subtype (text b208), the “affinity (Ki) ratios for an α subunit paired with the β2 versus the β4 subunit” value is given as “up to 1,800” and the “folds less active than epibatidine (2) at each β2 containing subtypes” value is given as 3-14 folds. At α4β2 nAChR subtype (text b210), the “more selective for α4β2 over α3β4 than the corresponding parent compounds 7, 8, and 2” value is given as 2 orders of magnitude. Moreover, the “Affinity ratio (α3β4/Forbrain)” value in experiment [2] is recorded as 1,237.

Source of the values: patent US8030300B2, “Ligands for nicotinic acetylcholine receptors, and methods of making and using them” (priority 2003, dated 2011).
